Results taken from article PMC11286772, “Structural basis of antagonist selectivity in endothelin receptors” (Cell Discovery, 2024).
Where two headings read alike, the source gives them in different places.

Protein sequences, listed by entry. Tags and fused reporters are not part of them. Residues count along the entry.
UniProt P25101, 21-427: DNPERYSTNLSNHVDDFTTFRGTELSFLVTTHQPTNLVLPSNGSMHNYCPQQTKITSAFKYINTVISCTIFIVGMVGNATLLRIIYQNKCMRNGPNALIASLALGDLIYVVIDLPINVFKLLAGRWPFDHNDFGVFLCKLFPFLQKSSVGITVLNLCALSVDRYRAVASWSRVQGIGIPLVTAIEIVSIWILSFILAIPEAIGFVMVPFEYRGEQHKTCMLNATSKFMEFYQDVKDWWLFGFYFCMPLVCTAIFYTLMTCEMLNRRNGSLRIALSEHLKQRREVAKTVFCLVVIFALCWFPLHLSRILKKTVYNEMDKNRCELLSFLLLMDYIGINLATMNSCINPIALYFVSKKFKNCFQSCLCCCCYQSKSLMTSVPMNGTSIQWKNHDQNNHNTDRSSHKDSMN
UniProt P25101, 21-427 F161A: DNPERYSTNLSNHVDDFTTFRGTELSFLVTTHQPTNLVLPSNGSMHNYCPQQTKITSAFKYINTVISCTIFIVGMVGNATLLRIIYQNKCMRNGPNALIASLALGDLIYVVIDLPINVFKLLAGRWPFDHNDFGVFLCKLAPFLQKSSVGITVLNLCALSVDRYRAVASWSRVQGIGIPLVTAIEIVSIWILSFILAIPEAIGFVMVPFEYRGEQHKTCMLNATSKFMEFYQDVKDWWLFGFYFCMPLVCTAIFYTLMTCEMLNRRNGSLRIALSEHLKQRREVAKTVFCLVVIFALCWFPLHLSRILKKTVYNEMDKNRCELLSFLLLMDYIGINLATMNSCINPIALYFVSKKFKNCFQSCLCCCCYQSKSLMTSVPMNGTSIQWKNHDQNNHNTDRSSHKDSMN
UniProt P25101, 21-427 L259A: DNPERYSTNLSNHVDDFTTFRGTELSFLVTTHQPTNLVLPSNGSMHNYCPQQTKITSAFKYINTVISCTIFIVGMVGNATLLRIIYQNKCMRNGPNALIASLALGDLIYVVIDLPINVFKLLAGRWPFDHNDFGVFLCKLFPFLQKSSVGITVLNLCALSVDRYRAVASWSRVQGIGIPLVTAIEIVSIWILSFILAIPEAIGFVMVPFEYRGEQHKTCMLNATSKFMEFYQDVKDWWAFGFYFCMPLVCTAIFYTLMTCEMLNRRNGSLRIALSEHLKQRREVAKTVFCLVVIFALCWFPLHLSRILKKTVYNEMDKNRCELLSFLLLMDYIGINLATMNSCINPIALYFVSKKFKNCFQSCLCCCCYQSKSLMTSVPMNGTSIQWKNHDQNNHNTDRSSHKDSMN
UniProt P25101, 21-427 L322A: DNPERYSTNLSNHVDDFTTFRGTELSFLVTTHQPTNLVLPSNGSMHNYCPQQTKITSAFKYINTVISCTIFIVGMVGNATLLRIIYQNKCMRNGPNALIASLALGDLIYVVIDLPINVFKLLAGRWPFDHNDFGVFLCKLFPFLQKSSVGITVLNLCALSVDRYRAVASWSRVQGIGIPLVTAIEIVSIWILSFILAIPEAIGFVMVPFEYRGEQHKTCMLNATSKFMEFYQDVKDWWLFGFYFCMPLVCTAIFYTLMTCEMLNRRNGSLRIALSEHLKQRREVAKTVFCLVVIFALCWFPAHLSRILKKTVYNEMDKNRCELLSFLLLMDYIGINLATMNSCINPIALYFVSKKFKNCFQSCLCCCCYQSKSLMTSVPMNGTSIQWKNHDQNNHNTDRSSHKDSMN
UniProt P25101, 21-427 R326A: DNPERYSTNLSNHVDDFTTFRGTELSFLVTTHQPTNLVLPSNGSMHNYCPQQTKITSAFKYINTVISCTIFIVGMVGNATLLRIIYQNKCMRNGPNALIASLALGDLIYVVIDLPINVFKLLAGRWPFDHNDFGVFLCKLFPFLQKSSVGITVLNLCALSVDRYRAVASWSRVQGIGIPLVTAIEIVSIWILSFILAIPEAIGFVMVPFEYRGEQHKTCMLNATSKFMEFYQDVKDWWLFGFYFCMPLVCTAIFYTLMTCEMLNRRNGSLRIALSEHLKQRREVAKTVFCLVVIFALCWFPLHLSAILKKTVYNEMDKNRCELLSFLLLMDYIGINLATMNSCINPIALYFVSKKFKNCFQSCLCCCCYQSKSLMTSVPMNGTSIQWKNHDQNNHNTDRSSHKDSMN
UniProt P25101, 21-427 Y129A: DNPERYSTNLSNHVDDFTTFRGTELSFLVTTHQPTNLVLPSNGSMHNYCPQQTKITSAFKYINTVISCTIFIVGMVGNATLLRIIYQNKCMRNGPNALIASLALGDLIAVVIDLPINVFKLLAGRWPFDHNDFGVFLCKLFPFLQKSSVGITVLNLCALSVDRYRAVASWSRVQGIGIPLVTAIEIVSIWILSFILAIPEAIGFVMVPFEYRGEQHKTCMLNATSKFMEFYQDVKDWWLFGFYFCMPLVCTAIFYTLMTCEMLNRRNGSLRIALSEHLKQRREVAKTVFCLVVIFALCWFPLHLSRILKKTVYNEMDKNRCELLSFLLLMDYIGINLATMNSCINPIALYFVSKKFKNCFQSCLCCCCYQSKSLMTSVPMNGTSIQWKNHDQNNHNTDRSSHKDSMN
UniProt P25101, 21-427 Y129F: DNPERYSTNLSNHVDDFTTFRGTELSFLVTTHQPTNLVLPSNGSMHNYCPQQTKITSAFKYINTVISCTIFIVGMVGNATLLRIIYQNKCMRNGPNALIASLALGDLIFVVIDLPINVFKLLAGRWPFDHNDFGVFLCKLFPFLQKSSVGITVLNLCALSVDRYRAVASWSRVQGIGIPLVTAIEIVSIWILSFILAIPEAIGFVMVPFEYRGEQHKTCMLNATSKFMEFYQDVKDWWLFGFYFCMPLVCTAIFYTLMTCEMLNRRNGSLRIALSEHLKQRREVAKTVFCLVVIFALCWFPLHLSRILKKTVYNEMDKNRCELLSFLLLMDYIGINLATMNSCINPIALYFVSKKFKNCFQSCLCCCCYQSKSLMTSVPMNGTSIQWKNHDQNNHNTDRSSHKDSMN
UniProt P25101, 21-427 Y129H: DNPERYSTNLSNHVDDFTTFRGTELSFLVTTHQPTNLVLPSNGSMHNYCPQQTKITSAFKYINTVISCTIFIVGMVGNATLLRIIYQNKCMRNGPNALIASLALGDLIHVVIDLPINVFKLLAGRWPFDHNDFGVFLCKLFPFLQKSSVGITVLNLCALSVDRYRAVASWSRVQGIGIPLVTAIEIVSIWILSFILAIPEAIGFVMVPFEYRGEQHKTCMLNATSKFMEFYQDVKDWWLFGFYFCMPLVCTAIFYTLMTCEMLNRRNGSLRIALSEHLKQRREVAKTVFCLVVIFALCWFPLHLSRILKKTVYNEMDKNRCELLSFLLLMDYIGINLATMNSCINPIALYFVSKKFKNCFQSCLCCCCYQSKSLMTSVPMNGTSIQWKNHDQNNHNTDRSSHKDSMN
UniProt P25101, 21-427 Y263A: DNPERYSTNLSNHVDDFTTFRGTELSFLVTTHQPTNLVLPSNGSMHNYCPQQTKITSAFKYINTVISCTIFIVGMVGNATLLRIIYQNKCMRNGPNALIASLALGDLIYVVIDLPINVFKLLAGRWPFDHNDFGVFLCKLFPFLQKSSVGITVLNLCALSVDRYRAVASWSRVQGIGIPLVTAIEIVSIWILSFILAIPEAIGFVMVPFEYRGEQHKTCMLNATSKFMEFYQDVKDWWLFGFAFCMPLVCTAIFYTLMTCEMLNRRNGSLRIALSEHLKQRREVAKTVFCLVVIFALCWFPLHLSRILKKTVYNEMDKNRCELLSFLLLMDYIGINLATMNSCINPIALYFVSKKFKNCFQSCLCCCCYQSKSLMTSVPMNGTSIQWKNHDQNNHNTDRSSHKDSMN

Experiments:
Assay type in all cases: cell-based
[1] = molecular target: T1, ETA WT (Homo sapiens, UniProt P25101); test: Calcium mobilization assay, antagonist mode (ET-1 stimulated), CHO-K1 cells
T1 construct: expressed in transfected cells; host or cells: CHO-K1
Procedure: CHO-K1 cells were cultured in Ham’s F-12K (Kaighn’s) Medium (Gibco-Thermo Fisher Scientific) supplemented with 10% (v/v) fetal bovine serum (FBS; Gibco-Thermo Fisher Scientific), and 100 U/mL Penicillin-Streptomycin (Gibco-Thermo Fisher Scientific) in a humidified incubator at 37 °C with 5% CO2. Cells were seeded in 6-cm dishes overnight; when the density reached 60%–80%, the cells were transferred to F12K Medium supplemented with 10% FBS and transfected with 1.5 μg DNA encoding the ETA WT or mutants or 3 μg DNA encoding the ETB WT or mutants using TransIT2020 (Mirus Biosciences). The next day, transfected cells were harvested from the plate using Versene buffer (Gibco-Thermo Fisher Scientific) and seeded into black-sided, clear-bottomed 384-well plates (Agilent) at a density of 1,5000 cells per well. After 20 h, the 1% dFBS medium was removed, and cells were loaded with 20 μL/well of 1× Calcium 6 dye (Molecular Devices) and incubated at 37 °C for 1 h in the dark. […] All data were analyzed using GraphPad Prism 8 and the data are from at least three independent replicate experiments. All plots are shown as means ± SEM. Data were determined using one-way ANOVA followed by Dunnett’s multiple test compared with WT. The top value was normalized to 100% and the bottom value was normalized to 0% for the final presentation. […]

[2] = molecular target: T2, ETA F161^3.28A (Homo sapiens, UniProt P25101, F161A); test: Calcium mobilization assay, antagonist mode
T2 construct: expressed in transfected cells; host or cells: CHO-K1
Procedure: (§1) CHO-K1 cells were cultured in Ham’s F-12K (Kaighn’s) Medium (Gibco-Thermo Fisher Scientific) supplemented with 10% (v/v) fetal bovine serum (FBS; Gibco-Thermo Fisher Scientific), and 100 U/mL Penicillin-Streptomycin (Gibco-Thermo Fisher Scientific) in a humidified incubator at 37 °C with 5% CO2. Cells were seeded in 6-cm dishes overnight; when the density reached 60%–80%, the cells were transferred to F12K Medium supplemented with 10% FBS and transfected with 1.5 μg DNA encoding the ETA WT or mutants or 3 μg DNA encoding the ETB WT or mutants using TransIT2020 (Mirus Biosciences). The next day, transfected cells were harvested from the plate using Versene buffer (Gibco-Thermo Fisher Scientific) and seeded into black-sided, clear-bottomed 384-well plates (Agilent) at a density of 1,5000 cells per well. After 20 h, the 1% dFBS medium was removed, and cells were loaded with 20 μL/well of 1× Calcium 6 dye (Molecular Devices) and incubated at 37 °C for 1 h in the dark. […] All data were analyzed using GraphPad Prism 8 and the data are from at least three independent replicate experiments. All plots are shown as means ± SEM. Data were determined using one-way ANOVA followed by Dunnett’s multiple test compared with WT. The top value was normalized to 100% and the bottom value was normalized to 0% for the final presentation. Nonlinear curve fit was performed using a four-parameter logistic equation (log (agonist vs response) or log (inhibitor vs response)).

[3] = molecular target: T3, ETA L259^5.42A (Homo sapiens, UniProt P25101, L259A); test: Calcium mobilization assay, antagonist mode
T3 construct: expressed in transfected cells; host or cells: CHO-K1
Procedure: as §1

[4] = molecular target: T4, ETA L322^6.51A (Homo sapiens, UniProt P25101, L322A); test: Calcium mobilization assay, antagonist mode
T4 construct: expressed in transfected cells; host or cells: CHO-K1
Procedure: as §1

[5] = molecular target: T5, ETA R326^6.55A (Homo sapiens, UniProt P25101, R326A); test: Calcium mobilization assay, antagonist mode
T5 construct: expressed in transfected cells; host or cells: CHO-K1
Procedure: as §1

[6] = molecular target: T6, ETA Y129^2.53A (Homo sapiens, UniProt P25101, Y129A); test: Calcium mobilization assay, antagonist mode
T6 construct: expressed in transfected cells; host or cells: CHO-K1
Procedure: as §1

[7] = molecular target: T7, ETA Y129^2.53F (Homo sapiens, UniProt P25101, Y129F); test: Calcium mobilization assay, antagonist mode
T7 construct: expressed in transfected cells; host or cells: CHO-K1
Procedure: as §1

[8] = molecular target: T8, ETA Y129^2.53H (Homo sapiens, UniProt P25101, Y129H); test: Calcium mobilization assay, antagonist mode
T8 construct: expressed in transfected cells; host or cells: CHO-K1
Procedure: as §1

[9] = molecular target: T9, ETA Y263^5.46A (Homo sapiens, UniProt P25101, Y263A); test: Calcium mobilization assay, antagonist mode
T9 construct: expressed in transfected cells; host or cells: CHO-K1
Procedure: as §1

Structure (SMILES): COc1nc(C)cnc1NS(=O)(=O)c1cccnc1-c1ccc(-c2nnco2)cc1 [zibotentan]
- IC50 ([1]; CHO-K1 cells, n = 5, read-out: IC50, inhibition activity on ETA in calcium mobilization assay): 0.0086 µM
- IC50 ([1]; read-out: pIC50±S.E.M. (converted)): 0.0135 µM
- IC50 [2]: 5.5 µM
- IC50 [3]: 10.2 µM
- IC50 [4]: 6.03 µM
- IC50 [5]: 4.07 µM
- IC50 [6]: 6.31 µM
- IC50 [7]: 4.27 µM
- IC50 [8]: 9.55 µM
- IC50 [9]: 2.57 µM
